Results as given in patent US6358492B1, “Dopamine transporter imaging ligand” (Research Triangle Institute, priority 1997, dated 2002).
Read-outs that look alike come from different tables or passages of the source.

Legend:
[1] = molecular target: serotonin transporter (UniProt P31652); conditions: read-out: IC50 5-HT [3H]Paroxetine; 0.2 nM [3H]paroxetine; values taken from literature (footnotes d-h); cited from earlier work
[2] = molecular target: serotonin transporter (UniProt P31652); assay type: binding; conditions: read-out: IC50 5-HT [3H]Paroxetine; 0.2 nM [3H]paroxetine; mean ± standard error where given

SMILES	IC50 [1] [µM]	IC50 [2] [µM]
COC(=O)C1C(c2ccccc2)CC2CCC1N2C (centres unmarked) [1e]	2	–
COC(=O)C1C(c2ccccc2)CC2CCC1N2C (centres unmarked) [2e]	–	5.7
